Experimental data: patent US20230039917A1, “EXO-AZA SPIRO INHIBITORS OF MENIN-MLL INTERACTION” (Janssen Pharmaceutica NV, priority 2017, published 2023)

Sequences of proteins named here, by UniProt entry; tags and fusion partners are left off. A line that says so, or that is headed by a name, gives the form on record, which may keep a tag or linker. Residues count along the entry.
UniProt O00255, 1-610 with tags or gaps F410E/T541A: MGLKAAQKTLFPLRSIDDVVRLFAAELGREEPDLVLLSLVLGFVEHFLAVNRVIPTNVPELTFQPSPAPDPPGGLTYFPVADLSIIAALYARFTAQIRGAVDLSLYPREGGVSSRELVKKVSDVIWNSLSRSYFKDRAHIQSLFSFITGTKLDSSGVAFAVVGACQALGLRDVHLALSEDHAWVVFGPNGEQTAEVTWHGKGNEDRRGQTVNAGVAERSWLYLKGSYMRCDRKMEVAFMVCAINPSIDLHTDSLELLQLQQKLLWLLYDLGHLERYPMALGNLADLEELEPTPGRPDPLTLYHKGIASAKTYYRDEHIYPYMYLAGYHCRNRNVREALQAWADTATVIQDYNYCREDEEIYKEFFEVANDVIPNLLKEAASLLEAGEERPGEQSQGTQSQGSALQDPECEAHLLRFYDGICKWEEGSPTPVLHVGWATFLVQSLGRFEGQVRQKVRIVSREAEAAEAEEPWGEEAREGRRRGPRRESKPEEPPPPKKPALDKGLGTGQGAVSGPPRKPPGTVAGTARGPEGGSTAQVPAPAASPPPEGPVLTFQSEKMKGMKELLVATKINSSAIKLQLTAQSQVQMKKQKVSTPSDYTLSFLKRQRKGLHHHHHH

Target: menin.FITC-MBM1 complex (terbium chelate-labeled menin) (Homo sapiens, UniProt O00255, F410E/T541A)
Assay: Menin/MLL homogenous time-resolved fluorescence (HTRF) assay
Settings: read-out: (2) location 2 Menin HTRF assay (IC50 (nM))

An IC50 of 6.5 nM was found for `Cn1c(=O)[nH]c2ccc(CNC3CCC4(C3)CN(c3ncnc5sc(CC(F)(F)F)cc35)C4)cc21` (centres unmarked) in this work.

An IC50 of 4.2 nM was found for `CNC(=O)c1ccc(NC2CC3(CCN(c4ncnc5sc(CC(F)(F)F)cc45)C3)C2)c(C)c1` (single isomer, unassigned) in this work.
